Target: Human brain β-Secretase (Homo sapiens, UniProt P56817)
Test: MBP-C125 enzyme inhibition assay (ELISA detection of β-secretase cleavage of MBP-C125 substrate)
Details: read-out: IC50 Grouping, pH 4.5, 37° C., 90 minutes

The chains behind the UniProt entries cited, without tags or fusion partners. Residues count along the entry.
UniProt P56817, 46-501 limits assumed: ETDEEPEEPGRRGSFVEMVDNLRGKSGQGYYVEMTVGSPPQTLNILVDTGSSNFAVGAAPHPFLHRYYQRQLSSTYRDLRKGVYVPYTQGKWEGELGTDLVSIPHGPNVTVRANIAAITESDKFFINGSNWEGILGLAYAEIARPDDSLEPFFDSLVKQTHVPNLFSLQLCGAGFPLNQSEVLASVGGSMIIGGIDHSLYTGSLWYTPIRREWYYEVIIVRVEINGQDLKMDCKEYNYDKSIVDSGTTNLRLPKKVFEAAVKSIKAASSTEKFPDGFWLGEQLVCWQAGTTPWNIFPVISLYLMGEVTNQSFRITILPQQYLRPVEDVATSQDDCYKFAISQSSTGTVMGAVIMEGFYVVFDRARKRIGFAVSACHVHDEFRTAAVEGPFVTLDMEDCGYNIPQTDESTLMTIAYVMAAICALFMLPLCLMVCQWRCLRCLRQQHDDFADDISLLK

IC50: 10 to 99 µM
Structure (SMILES): CC(C)C[C@H](NC(=O)C(O)c1cccc2ccccc12)[C@@H](O)CC(=O)N[C@H](C(=O)NCc1ccc(C(=O)O)cc1)C(C)C (single isomer, unassigned)

Reference: patent US7276484B2, “Dipeptide inhibitors of β-secretase” (Elan Pharmaceuticals, Inc., priority 1999, dated 2007)
